# Apparent affinities of Ab-91 variants for a coronavirus HR2 peptide

Values reported by Engelhart et al. 2022, doi:10.1038/s41597-022-01779-4 (FLAb copy).

The target is the same throughout: PDVDLGDISGINAS, from the HR2 region of SARS-CoV-2 spike.

Parent scFv Ab-91: VL joined to VH by three GGGGS repeats. Changes lie in the heavy chain CDRs alone.
VL: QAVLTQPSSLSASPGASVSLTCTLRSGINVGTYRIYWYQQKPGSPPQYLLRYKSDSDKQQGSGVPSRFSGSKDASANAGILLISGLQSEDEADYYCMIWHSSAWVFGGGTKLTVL
VH: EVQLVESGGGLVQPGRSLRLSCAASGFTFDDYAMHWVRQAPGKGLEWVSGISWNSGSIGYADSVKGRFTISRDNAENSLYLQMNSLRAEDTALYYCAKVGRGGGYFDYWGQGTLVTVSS

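The starting antibody came from a phage panning campaign against this peptide. AAYL51 was designed without a model: most single CDR substitutions and a random sample of double and triple ones. The scFvs were displayed on barcoded MATa yeast, the peptide on MATalpha yeast. Binding brings cells together so that they mate, and sequencing counts the barcode pairs among the diploids. Read counts were normalised to the haploid input and turned into Kd by a linear fit to BCL2-family pairs of known affinity, for each replicate. There are three technical replicates.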

The parent's heavy chain CDRs are GFTFDDYAMH, GISWNSGSIGYADSVK, VGRGGGYFDY; each variant's own CDRs replace them letter for letter.
Affinities are written as log10 Kd with Kd in nM; a lower number is a better binder.
A pair that was not seen in that replicate is written "n.d."; this usually means weak binding, but a binder can also be missed.
For reference, the parent read 1.86 as the reference entry and 0.88 as a member of this library.

CDR-H1,CDR-H2,CDR-H3,"replicates, log10 nM",empty controls
GFTFDDYAMH,DISWNRGSIGYADSVK,RGRGGGYFDY,3.93 / n.d. / n.d.,2/9 (4.60)
GFTFDDYMMH,GISWNSGSIGYADSVE,VWRGGGYFDY,n.d. / n.d. / n.d.,2/9 (4.21)
WFTFDDYAMH,GISWNSGGIGYADSVK,VGTGGGYFDY,n.d. / n.d. / n.d.,1/9 (3.41)
GFTFDDYCMH,GISWNSGSIGYADSVK,GGRGGGYFDI,4.82 / 4.87 / 6.06,7/9 (4.63)
GFTFDIYAMH,CISWNSGSIGYADSVN,VGRGGGYFDY,4.47 / 5.85 / 5.41,7/9 (4.85)
YFTFDDYAMR,GISWNSGFIGYADSVK,VGRGGGYFDY,n.d. / n.d. / n.d.,0/9
MFTTDDYAMH,GISWNSGSIGYAWSVK,VGRGGGYFDY,2.48 / n.d. / n.d.,0/9
GFEFDDYAMH,GISWNSGSIDYADSVK,VGRGGGYFDY,n.d. / n.d. / n.d.,0/9
GCTFDDYAMP,GISWNSGSIGYADSVK,VGRGGGYKDY,n.d. / n.d. / n.d.,4/9 (5.13)
GFTFDDYGML,GISWNSMSIGYADSVK,VGRGGGYFDY,5.05 / n.d. / n.d.,0/9
GFTFDIYAMH,GHSWNSGYIGYADSVK,VGRGGGYFDY,n.d. / n.d. / n.d.,1/9 (4.30)
GFTFDDYAMH,GISWNSGSIGYADSVK,IGRNGGYLDY,n.d. / n.d. / n.d.,0/9
GFTFDVYAMH,GISWFSGSIGYADSVK,VGRGGAYFDY,n.d. / n.d. / n.d.,0/9
GFLFDDYAMH,GHSWNSGSIGYADSVK,VGRGGKYFDY,5.64 / n.d. / n.d.,1/9 (4.09)
GFTFDDYAMH,GISWNSGVIGHADSVK,VGRGGGYFDY,5.05 / 4.67 / 5.02,5/9 (4.90)
GFTFNDYAMH,GISWNSGSIGRADSFK,VGRGGGYFDY,4.86 / n.d. / 4.72,4/9 (4.31)
GFTFDDYAGH,NISWNSGSIGYADSVK,VGRGMGYFDY,n.d. / n.d. / n.d.,0/9
GFTFTDYAMH,GISWNSGSIFYADSVK,VGRGKGYFDY,4.36 / n.d. / n.d.,2/9 (4.40)
GFTFDDYAMH,GGQWNSGSIGYADSCK,VGRGGGYFDY,n.d. / n.d. / n.d.,1/9 (3.81)
GFTFDDYAMH,GISWNSGTIGYADEVK,VGRGGPYFDY,3.14 / 3.08 / 3.25,6/9 (4.63)
GFTFDDYAMH,GYSWNSGGIGYADSVK,VGRLGGYFDY,n.d. / n.d. / n.d.,0/9
GFTFDDYAMH,GISWNPGSIGHADSVK,VGRGGGYFDL,n.d. / n.d. / n.d.,1/9 (2.95)
GFTLDDYAMH,TISENSGSIGYADSVK,VGRGGGYFDY,n.d. / 4.29 / n.d.,3/9 (4.75)
GFTFDDYAMH,LISWNSGSIGYADSSK,VGRGGGYFVY,n.d. / 3.72 / n.d.,0/9
GVTIDDYAME,GISWNSGSIGYADSVK,VGRGGGYFDY,3.58 / n.d. / n.d.,0/9
GFQFDDYAMH,GISWNSGSIGYADSVK,VGRGCGYFDT,n.d. / 5.57 / n.d.,4/9 (4.10)
GRTFDDYATH,GIAWNSGSIGYADSVK,VGRGGGYFDY,4.08 / 3.56 / n.d.,1/9 (3.42)
GFTFDDYAMH,GISTNSGSIGYADSVK,VGRGGGYFIY,1.21 / 1.12 / 0.66,8/9 (5.24)
GFGFDDYAMH,GISWFSGSIGYADSVK,VGRGGGYFDY,4.51 / n.d. / n.d.,0/9
GFTFDDYAMH,GISWNSFSIGYADSVK,VGRGGYYFDK,4.78 / 6.48 / n.d.,6/9 (4.71)
GFTFKDYAMH,GISANSSSIGYADSVK,VGRGGGYFDY,2.27 / 2.51 / 1.93,8/9 (5.00)
GFTFDDYAMH,GIQWNSGSIGSADSVK,VGRGGGYFDY,4.56 / n.d. / n.d.,2/9 (5.46)
GFTFDDYAMH,GISWNSGSSGYADTVK,VGRTGGYFDY,n.d. / n.d. / n.d.,2/9 (4.33)
GFTFDDYAMW,GISWNSGSIGYADSVQ,VGRGGGNFDY,4.36 / 4.25 / 4.85,2/9 (5.32)
GFAFDDYAMH,GESWNSGSIGYADSVQ,VGRGGGYFDY,n.d. / n.d. / 4.44,1/9 (3.70)
GFTFDDYAMH,GISWGSGSIGYADSVK,FGRGGGYFDE,2.32 / 2.43 / 2.44,5/9 (5.26)
GFTFDDIAMH,GISWNSGSIGYADSVK,VGRGGGRFRY,n.d. / n.d. / n.d.,2/9 (3.56)
GFTFDDYAMH,GHSWNSGSIGYADSVK,PGEGGGYFDY,4.91 / n.d. / n.d.,1/9 (1.96)
GFTFDDYAMH,GISWLSGSIGYADLVK,VGRGGGAFDY,n.d. / 4.00 / n.d.,0/9
GFTADDYAMH,GISWNSGSIGYADSVK,VGEGGAYFDY,n.d. / n.d. / n.d.,1/9 (3.14)
GFTFDDYAMH,GISWNSGSIGYADSVK,VPVGGGTFDY,3.81 / n.d. / n.d.,0/9
GFTFDDDAMH,GISWNSGYIGYASSVK,VGRGGGYFDY,n.d. / n.d. / n.d.,1/9 (3.03)
GFTFDPYAMH,GISWNSGSIGYADSVK,VGIFGGYFDY,n.d. / 2.86 / n.d.,0/9
GFTFDDYAMH,DISWNSGSIGYADSVK,VGRGCGYFDC,n.d. / n.d. / n.d.,1/9 (3.11)
GFTFDDVAMI,GGSWNSGSIGYADSVK,VGRGGGYFDY,5.88 / n.d. / n.d.,3/9 (4.37)
GFTFDDYAMH,GISWNSGSIGYANSVK,VGRGGGYFDY,1.55 / 1.71 / 1.31,3/9 (4.96)
RTTFDDYAMH,GISWNSGSIGYADSVK,EGRGGGYFDY,n.d. / n.d. / n.d.,1/9 (4.09)
GFTFDDYAIH,GISWNSGSIGYADSVK,VGRGGGGFDC,2.04 / 1.52 / 1.45,1/9 (3.84)
GFTFDIYAMH,GISWNSGSRGYADSVL,VGRGGGYFDY,2.39 / 2.30 / 1.90,1/9 (4.10)
GFTFDDYRMH,GISWNSGSIGYADEVK,VWRGGGYFDY,n.d. / 5.17 / 5.38,4/9 (5.54)

Top 5 of the variants detected in all replicates, tightest first:

CDR-H1,CDR-H2,CDR-H3,"replicates, log10 nM",empty controls
GFTFDDYAMH,GISTNSGSIGYADSVK,VGRGGGYFIY,1.21 / 1.12 / 0.66,8/9 (5.24)
GFTFDDYAMH,GISWNSGSIGYANSVK,VGRGGGYFDY,1.55 / 1.71 / 1.31,3/9 (4.96)
GFTFDDYAIH,GISWNSGSIGYADSVK,VGRGGGGFDC,2.04 / 1.52 / 1.45,1/9 (3.84)
GFTFDIYAMH,GISWNSGSRGYADSVL,VGRGGGYFDY,2.39 / 2.30 / 1.90,1/9 (4.10)
GFTFKDYAMH,GISANSSSIGYADSVK,VGRGGGYFDY,2.27 / 2.51 / 1.93,8/9 (5.00)

Nonspecific signal, from three strains lacking the peptide, appeared in 21% of pairings of library AAYL51, centred on 4.54 (5% of these signals below 3.26); values are not corrected for it. Also given: how often the same scFv was detected with the empty control strains, with their mean in brackets.